In patent US8367360B2, “Method of screening for inhibitors of tau protein phosphororylation by tyrosine kinase c-Abl” (Proteome Sciences plc, priority 2004, dated 2013):

How the values were obtained:
Assay in all cases: cell-based or functional assay
[1] = biological target: V5 tagged human tau mutant Y394-only (human) (UniProt P10636)
[2] = biological target: V5 tagged human tau mutant Y18-only (human) (UniProt P10636)
[3] = biological target: V5 tagged human tau mutant Y29-only (human) (UniProt P10636)
[4] = biological target: V5 tagged human tau mutant Y197-only (human) (UniProt P10636)

Measured: tyrosine phosphorylation of immunoprecipitated tau (4G10 Western blot), CHO cells co-transfected with Syk (% of the level found with wild-type)

Syk tyrosine kinase (expressed from Syk cDNA in CHO cells) (from UniProt P43405 1-635) (enzyme)
20 to 25: all assays above
